Reference: patent US4446141A, “Hypotensive piperidine derivatives” (priority 1978, dated 1984)
This is a selection: effects in other tests are not listed, and their absence says nothing.

How the values were obtained:
male dd-strain mice [1] = assay: Experiment 2 Acute toxicity (LD50); details: 7 days
male dd-strain mice [2] = assay: Experiment 1 Acute toxicity (number of deaths); details: 3 mice, 7 days; for Number of Death I.P.: 200 mg/kg i.p.; for Number of Death P.O.: 1000 mg/kg p.o.
blood pressure [3] = assay: Experiment 4 Hypotensive action, changes in blood pressure with time in anesthetized rats; details: average of six rats, pressure before = 0
blood pressure [4] = assay: Experiment 6 Dosage-reaction curve, spontaneously hypertensive rats; type: in vivo; details: SHR, average of five rats
blood pressure [5] = assay: Experiment 6 Dosage-reaction curve, DOCA-NaCl loaded hypertensive rats; type: in vivo, DOCA-sodium chloride loaded hypertensive rats; details: average of five rats
blood pressure [6] = assay: Experiment 5 Changes in blood pressure due to continuous administration, spontaneously hypertensive rats; details: SHR, 30 mg/kg oral once a day, immediately before administration 197
blood pressure [7] = assay: Experiment 5 Changes in blood pressure due to continuous administration, DOCA-NaCl loaded hypertensive rats; details: 30 mg/kg oral once a day, immediately before administration 185

SMILES: O=c1[nH]c2ccccc2n1C1CCN(CC(O)c2ccc3c(c2)OCO3)CC1 (centres unmarked)
- LD50 Intraperitoneal administration (male dd-strain mice [1]): 500 mg/kg
- LD50 Oral administration (male dd-strain mice [1]): 1500 mg/kg
- LD50 Subcutaneous administration (male dd-strain mice [1]): > 1000 mg/kg
- Number of Death I.P. (male dd-strain mice [2]): 0
- Number of Death P.O. (male dd-strain mice [2]): 0
- change in blood pressure (blood pressure [3]; 10 min. after 30 mg/kg i.p.): -58 mmHg
- change in blood pressure (blood pressure [3]; 30 min. after 30 mg/kg i.p.): -40 mmHg
- change in blood pressure (blood pressure [3]; 1 hr. after 30 mg/kg i.p.): -42 mmHg
- change in blood pressure (blood pressure [3]; 2 hrs. after 30 mg/kg i.p.): -36 mmHg
- change in blood pressure (blood pressure [3]; 3 hrs. after 30 mg/kg i.p.): -26 mmHg
- change in blood pressure (blood pressure [3]; 4 hrs. after 30 mg/kg i.p.): -18 mmHg

SMILES: COc1ccc(C(O)C(C)N2CCC(n3c(O)nc4ccccc43)CC2)cc1OC (centres unmarked)
- Number of Death I.P. (male dd-strain mice [2]): 0
- Number of Death P.O. (male dd-strain mice [2]): 0

SMILES: COc1cc(C(O)CN2CCC(n3c(=O)[nH]c4ccccc43)CC2)cc(OC)c1OC (centres unmarked)
- Number of Death I.P. (male dd-strain mice [2]): 0
- Number of Death P.O. (male dd-strain mice [2]): 0

SMILES: COc1ccc(C(=O)C(C)N2CCC(n3c(=O)[nH]c4ccccc43)CC2)cc1OC (centres unmarked)
- Number of Death I.P. (male dd-strain mice [2]): 0
- Number of Death P.O. (male dd-strain mice [2]): 0

SMILES: CC(C(=O)c1ccc(O)c(O)c1)N1CCC(n2c(=O)[nH]c3ccccc32)CC1 (centres unmarked)
- Number of Death I.P. (male dd-strain mice [2]): 0
- Number of Death P.O. (male dd-strain mice [2]): 0

SMILES: CCn1c(=O)n(C2CCN(CC(O)c3ccc4c(c3)OCO4)CC2)c2ccccc21 (centres unmarked)
- Number of Death I.P. (male dd-strain mice [2]): 0
- Number of Death P.O. (male dd-strain mice [2]): 0

SMILES: O=C(CN1CCC(n2c(=O)[nH]c3ccccc32)CC1)c1ccc(O)c(O)c1
- Number of Death I.P. (male dd-strain mice [2]): 0
- Number of Death P.O. (male dd-strain mice [2]): 0

SMILES: COc1cc(C(=O)C(C)N2CCC(n3c(=O)[nH]c4ccccc43)CC2)cc(OC)c1OC (centres unmarked)
- Number of Death I.P. (male dd-strain mice [2]): 0
- Number of Death P.O. (male dd-strain mice [2]): 0

SMILES: CC(C(O)c1ccc(O)c(O)c1)N1CCC(n2c(=O)[nH]c3ccccc32)CC1 (centres unmarked)
- LD50 Intraperitoneal administration (male dd-strain mice [1]): 1500 mg/kg
- LD50 Oral administration (male dd-strain mice [1]): > 6000 mg/kg
- LD50 Subcutaneous administration (male dd-strain mice [1]): > 3000 mg/kg
- Number of Death I.P. (male dd-strain mice [2]): 0
- Number of Death P.O. (male dd-strain mice [2]): 0
- change in blood pressure (blood pressure [3]; 10 min. after 30 mg/kg i.p.): -58 mmHg
- change in blood pressure (blood pressure [3]; 30 min. after 30 mg/kg i.p.): -65 mmHg
- change in blood pressure (blood pressure [3]; 1 hr. after 30 mg/kg i.p.): -65 mmHg
- change in blood pressure (blood pressure [3]; 2 hrs. after 30 mg/kg i.p.): -57 mmHg
- change in blood pressure (blood pressure [3]; 3 hrs. after 30 mg/kg i.p.): -44 mmHg
- change in blood pressure (blood pressure [3]; 4 hrs. after 30 mg/kg i.p.): -34 mmHg

SMILES: COc1cc(C(O)C(C)N2CCC(n3c(O)nc4ccccc43)CC2)cc(OC)c1OC (centres unmarked)
- Number of Death I.P. (male dd-strain mice [2]): 0
- Number of Death P.O. (male dd-strain mice [2]): 0

SMILES: CC(C(O)c1cccc(O)c1)N1CCC(n2c(=O)[nH]c3ccccc32)CC1 (centres unmarked)
- LD50 Intraperitoneal administration (male dd-strain mice [1]): 500 mg/kg
- LD50 Oral administration (male dd-strain mice [1]): 2500 mg/kg
- LD50 Subcutaneous administration (male dd-strain mice [1]): > 1000 mg/kg
- Number of Death I.P. (male dd-strain mice [2]): 0
- Number of Death P.O. (male dd-strain mice [2]): 0
- change in blood pressure (blood pressure [3]; 30 min. after 30 mg/kg i.p.): -48 mmHg
- change in blood pressure (blood pressure [3]; 1 hr. after 30 mg/kg i.p.): -47 mmHg
- change in blood pressure (blood pressure [3]; 2 hrs. after 30 mg/kg i.p.): -39 mmHg
- change in blood pressure (blood pressure [3]; 3 hrs. after 30 mg/kg i.p.): -42 mmHg
- change in blood pressure (blood pressure [3]; 4 hrs. after 30 mg/kg i.p.): -48 mmHg

SMILES: O=c1[nH]c2ccccc2n1C1CCN(CC(O)c2ccc(O)c(O)c2)CC1 (centres unmarked)
- LD50 Intraperitoneal administration (male dd-strain mice [1]): 800 mg/kg
- LD50 Oral administration (male dd-strain mice [1]): 3000 mg/kg
- LD50 Subcutaneous administration (male dd-strain mice [1]): > 1000 mg/kg
- Number of Death I.P. (male dd-strain mice [2]): 0
- Number of Death P.O. (male dd-strain mice [2]): 0
- change in blood pressure (blood pressure [3]; 10 min. after 30 mg/kg i.p.): -67 mmHg
- change in blood pressure (blood pressure [3]; 30 min. after 30 mg/kg i.p.): -75 mmHg
- change in blood pressure (blood pressure [3]; 1 hr. after 30 mg/kg i.p.): -76 mmHg
- change in blood pressure (blood pressure [3]; 2 hrs. after 30 mg/kg i.p.): -69 mmHg
- change in blood pressure (blood pressure [3]; 3 hrs. after 30 mg/kg i.p.): -64 mmHg
- change in blood pressure (blood pressure [3]; 4 hrs. after 30 mg/kg i.p.): -63 mmHg

SMILES: O=C(CN1CCC(n2c(=O)[nH]c3ccccc32)CC1)c1ccc2c(c1)OCO2
- Number of Death I.P. (male dd-strain mice [2]): 0
- Number of Death P.O. (male dd-strain mice [2]): 0

SMILES: CC(C(=O)c1ccc2c(c1)OCO2)N1CCC(n2c(=O)[nH]c3ccccc32)CC1 (centres unmarked)
- Number of Death I.P. (male dd-strain mice [2]): 0
- Number of Death P.O. (male dd-strain mice [2]): 0

SMILES: O=c1[nH]c2ccccc2n1C1CCN(CC(O)c2ccc3ccccc3c2)CC1 (centres unmarked)
- Number of Death I.P. (male dd-strain mice [2]): 0
- Number of Death P.O. (male dd-strain mice [2]): 0

SMILES: COc1ccc(CCN2CCC(n3c(=O)[nH]c4ccccc43)CC2)cc1OC
- Number of Death I.P. (male dd-strain mice [2]): 0
- Number of Death P.O. (male dd-strain mice [2]): 0

SMILES: COc1ccc(C(O)C(C)N2CCC(n3c(=O)n(C(C)=O)c4ccccc43)CC2)cc1OC (centres unmarked)
- Number of Death I.P. (male dd-strain mice [2]): 0
- Number of Death P.O. (male dd-strain mice [2]): 0

SMILES: COc1ccc(C(=O)CN2CCC(n3c(=O)n(C(C)=O)c4ccccc43)CC2)cc1OC
- Number of Death I.P. (male dd-strain mice [2]): 0
- Number of Death P.O. (male dd-strain mice [2]): 0

SMILES: O=c1[nH]c2ccccc2n1C1CCN(CCc2ccc(O)c(O)c2)CC1
- Number of Death I.P. (male dd-strain mice [2]): 0
- Number of Death P.O. (male dd-strain mice [2]): 0

SMILES: COc1ccc(C(O)CN2CCC(n3c(=O)[nH]c4ccccc43)CC2)cc1OC (centres unmarked)
- Number of Death I.P. (male dd-strain mice [2]): 0
- Number of Death P.O. (male dd-strain mice [2]): 0

SMILES: CC(C(O)c1ccc2c(c1)OCO2)N1CCC(n2c(=O)[nH]c3ccccc32)CC1 (centres unmarked)
- Number of Death I.P. (male dd-strain mice [2]): 0
- Number of Death P.O. (male dd-strain mice [2]): 0

SMILES: COc1cc(C(=O)CN2CCC(n3c(=O)[nH]c4ccccc43)CC2)cc(OC)c1OC
- Number of Death I.P. (male dd-strain mice [2]): 0
- Number of Death P.O. (male dd-strain mice [2]): 0

SMILES: COc1ccc(C(=O)CN2CCC(n3c(=O)[nH]c4ccccc43)CC2)cc1OC
- maximum reduction in blood pressure (blood pressure [4]; 0.5 mg/kg oral): -29 mmHg
- maximum reduction in blood pressure (blood pressure [4]; 1.0 mg/kg oral): -34 mmHg
- maximum reduction in blood pressure (blood pressure [4]; 10 mg/kg oral): -50 mmHg
- maximum reduction in blood pressure (blood pressure [4]; 50 mg/kg oral): -57 mmHg
- maximum reduction in blood pressure (blood pressure [5]; 0.1 mg/kg oral): -12 mmHg
- maximum reduction in blood pressure (blood pressure [5]; 1.0 mg/kg oral): -29 mmHg
- maximum reduction in blood pressure (blood pressure [5]; 10 mg/kg oral): -46 mmHg
- maximum reduction in blood pressure (blood pressure [5]; 50 mg/kg oral): -72 mmHg
- LD50 Intraperitoneal administration (male dd-strain mice [1]): 485 mg/kg
- LD50 Oral administration (male dd-strain mice [1]): > 6000 mg/kg
- LD50 Subcutaneous administration (male dd-strain mice [1]): > 3000 mg/kg
- Number of Death I.P. (male dd-strain mice [2]): 0
- Number of Death P.O. (male dd-strain mice [2]): 0
- change in blood pressure (blood pressure [3]; 10 min. after 30 mg/kg i.p.): -23 mmHg
- change in blood pressure (blood pressure [3]; 30 min. after 30 mg/kg i.p.): -44 mmHg
- change in blood pressure (blood pressure [3]; 1 hr. after 30 mg/kg i.p.): -50 mmHg
- change in blood pressure (blood pressure [3]; 2 hrs. after 30 mg/kg i.p.): -56 mmHg
- change in blood pressure (blood pressure [3]; 3 hrs. after 30 mg/kg i.p.): -54 mmHg
- change in blood pressure (blood pressure [3]; 4 hrs. after 30 mg/kg i.p.): -51 mmHg
- blood pressure (blood pressure [6]; 1st day): 158 mmHg
- blood pressure (blood pressure [6]; 4th day): 160 mmHg
- blood pressure (blood pressure [6]; 9th day): 140 mmHg
- blood pressure (blood pressure [7]; 1st day): 140 mmHg
- blood pressure (blood pressure [7]; 4th day): 140 mmHg
- blood pressure (blood pressure [7]; 9th day): 144 mmHg
